The results in this text go back to article PMC3003779 (Chemistry & biology, 2010).

The chains behind the UniProt entries cited, without tags or fusion partners.
UniProt O08914, whole entry: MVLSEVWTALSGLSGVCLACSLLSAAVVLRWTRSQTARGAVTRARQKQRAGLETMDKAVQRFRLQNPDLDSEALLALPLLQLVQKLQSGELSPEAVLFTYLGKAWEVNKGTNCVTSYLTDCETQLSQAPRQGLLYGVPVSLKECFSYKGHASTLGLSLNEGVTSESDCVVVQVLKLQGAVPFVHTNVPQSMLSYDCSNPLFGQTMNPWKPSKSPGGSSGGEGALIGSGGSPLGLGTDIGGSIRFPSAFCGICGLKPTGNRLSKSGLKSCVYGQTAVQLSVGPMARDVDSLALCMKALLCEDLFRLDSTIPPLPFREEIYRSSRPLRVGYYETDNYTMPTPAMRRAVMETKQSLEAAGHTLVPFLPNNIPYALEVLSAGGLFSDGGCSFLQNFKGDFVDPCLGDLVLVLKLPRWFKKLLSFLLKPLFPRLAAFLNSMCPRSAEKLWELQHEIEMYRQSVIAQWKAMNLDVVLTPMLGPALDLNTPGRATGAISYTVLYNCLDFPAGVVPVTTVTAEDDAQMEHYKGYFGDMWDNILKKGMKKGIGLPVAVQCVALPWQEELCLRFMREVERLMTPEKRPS

This test concerns the target FAAH (Mus musculus, UniProt O08914). The test is described as follows: in vivo. As to conditions: for inhibition at 1 mg/kg: ip.

Each structure is given as a SMILES string. Like-named read-outs stand apart in the source and are kept apart here.

In the case of `O=S(=O)(F)CCCCCc1ccc(O)cc1` [AM3506, 5-(4-hydroxyphenyl)pentanesulfonyl fluoride], under “1 mg/kg i.p., 1 h”, the “FAAH activity in brain and liver after in vivo administration” value was “blocked FAAH activity in brain but not in liver”. Moreover, the inhibition at 1 mg/kg runs as follows: (read-out: FAAH inhibition, duration, 1 mg/kg i.p., 12 hours) approximately 90%; (read-out: FAAH inhibition, duration, 1 mg/kg i.p., 24 hours) approximately 80%; (read-out: FAAH inhibition, duration, 1 mg/kg i.p., up to 2 hours) more than 99%.
